Consider five molecules from patent publication US20260207704A1, “STAPLED PEPTIDES AND METHODS THEREOF” (priority 2022, published 2026).

By UniProt entry, the sequences of proteins in these tests, tags left out.
UniProt P35222, whole entry: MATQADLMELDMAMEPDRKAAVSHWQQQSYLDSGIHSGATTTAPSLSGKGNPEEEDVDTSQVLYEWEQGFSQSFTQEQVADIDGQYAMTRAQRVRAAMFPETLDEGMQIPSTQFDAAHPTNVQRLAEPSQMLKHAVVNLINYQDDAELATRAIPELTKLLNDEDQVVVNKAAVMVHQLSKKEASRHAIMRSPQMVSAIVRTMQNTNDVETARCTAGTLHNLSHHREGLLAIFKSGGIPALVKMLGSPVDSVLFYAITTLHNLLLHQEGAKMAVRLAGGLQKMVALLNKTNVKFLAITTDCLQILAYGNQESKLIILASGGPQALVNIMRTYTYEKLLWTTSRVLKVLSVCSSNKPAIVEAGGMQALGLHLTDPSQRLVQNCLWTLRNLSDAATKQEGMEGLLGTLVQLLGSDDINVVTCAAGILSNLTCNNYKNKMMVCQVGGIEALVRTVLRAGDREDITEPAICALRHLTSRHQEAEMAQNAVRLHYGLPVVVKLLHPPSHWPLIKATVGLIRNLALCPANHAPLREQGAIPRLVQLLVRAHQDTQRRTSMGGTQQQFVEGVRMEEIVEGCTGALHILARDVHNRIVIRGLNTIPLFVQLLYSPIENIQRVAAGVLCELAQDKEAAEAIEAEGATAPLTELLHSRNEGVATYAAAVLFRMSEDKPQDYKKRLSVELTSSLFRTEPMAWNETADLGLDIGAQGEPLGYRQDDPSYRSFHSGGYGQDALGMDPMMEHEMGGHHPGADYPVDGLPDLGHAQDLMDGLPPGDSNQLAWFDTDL

Where only a bound is given, the exact number is not on record here.

The target of one experiment is beta-catenin (Homo sapiens, UniProt P35222). The experiment in a line: fluorescence polarization binding to beta-catenin. To be noted: beta-Catenin FP IC50 (nM). On the technique in general: In fluorescence polarisation assays a small probe gives low polarisation when free and higher when bound to something large.
The target in another experiment is T1, beta-catenin/TCF4 (Homo sapiens, UniProt P35222).
T1 construct: expressed in transfected cells; host or cells: HEK293 cells
Nature of the experiment: Nano-BRET target engagement assay (HEK293 cells). It is filed as cell-based.

In general, IC50 refers to the concentration that inhibits the measured activity by half. Higher therefore signals a need for much substance. On to `CC(=O)N1CCC[C@]12CC=CCCCC1(CCCC=CCCCOC(=O)N3CC[C@@]4(C3)NC(=O)[C@H](CCCCNC(=O)CC[C@@H](C(=O)N[C@@H](C)C(N)=O)NC(=O)[C@H](Cc3csc5ccccc35)NC(=O)[C@H](Cc3ccsc3)NC4=O)NC(=O)[C@H](Cc3ccccc3)NC(=O)[C@H](C)NC(=O)[C@H](CCS(C)(=O)=O)NC(=O)[C@H](Cc3cccc(C(=O)O)c3)NC(=O)[C@H](CC(=O)O)NC1=O)NC(=O)[C@H](CC(C)(C)C)NC(=O)[C@H](CC(=O)O)NC2=O` (relative stereo) [I-380, Ac-PL3-Asp-Npg-B5-Asp-3COOHF-Met20-Ala-Phe-Lys*3-PyrS2-3Thi-BztA-GlnR*3-Ala-NH2], for which the half-maximal inhibitory concentration (IC50) on beta-catenin is below 50 nM; against beta-catenin/TCF4, above 10 µM.

Consider `CC(=O)N1CCC[C@]12CC=CCCCC1(CCCC=CCCCOC(=O)N3CC[C@@]4(C3)NC(=O)[C@H](CCCCNC(=O)CC[C@@H](C(=O)N[C@@H](CCCCNC(=O)CCOCCOCCOCCOCCOCCOCCOCCOCCNC(=O)CCCC[C@@H]3SC[C@@H]5NC(=O)N[C@@H]53)C(N)=O)NC(=O)[C@H](Cc3csc5ccccc35)NC(=O)[C@H](Cc3ccsc3)NC4=O)NC(=O)[C@H](Cc3ccccc3)NC(=O)[C@H](C)NC(=O)C(C)(C)NC(=O)[C@H](Cc3cccc(C(=O)O)c3)NC(=O)[C@H](CC(=O)O)NC1=O)NC(=O)[C@H](CC(C)(C)C)NC(=O)[C@H](CC(=O)O)NC2=O` (relative stereo) [I-517, Ac-PL3-Asp-Npg-B5-Asp-3COOHF-Aib-Ala-Phe-Lys*3-PyrS2-3Thi-BztA-GlnR*3-[BiotinPEG8]Lys-NH2], for which the half-maximal inhibitory concentration (IC50) on beta-catenin is below 50 nM; on beta-catenin/TCF4, above 10 µM.

Consider `CC(=O)N1CCC[C@]12CC=CCCCC1(CCCC=CCCCOC(=O)N3CC[C@@]4(C3)NC(=O)[C@H](CCCCNC(=O)CC[C@@H](C(=O)N[C@H](CO)[C@@H](C)O)NC(=O)[C@H](Cc3csc5ccccc35)NC(=O)[C@H](Cc3ccsc3)NC4=O)NC(=O)[C@H](Cc3ccccc3)NC(=O)[C@H](C)NC(=O)[C@H](C)NC(=O)[C@H](Cc3cccc(C(=O)O)c3)NC(=O)[C@H](CC(=O)O)NC1=O)NC(=O)[C@H](CC(C)(C)C)NC(=O)[C@H](CC(=O)O)NC2=O` (single isomer, unassigned) [I-62, Ac-PL3-Asp-Npg-B5-Asp-3COOHF-Ala-Ala-Phe-Lys*3-PyrS2-3Thi-BztA-GlnR*3-Throl], for which the concentration for half-maximal inhibition (IC50) on beta-catenin is below 50 nM; against beta-catenin/TCF4, 3 to 10 µM.

With `CC(=O)N1CCC[C@]12CC=CCCCC1(CCCC=CCCCOC(=O)N3CC[C@@]4(C3)NC(=O)[C@H](CC(C)C)NC(=O)[C@H](Cc3ccccc3)NC(=O)[C@H](C)NC(=O)[C@H](CCCCNC(=O)c3cccc(c3)C(=O)NCCCC[C@@H](C(N)=O)NC(=O)[C@H](Cc3csc5ccccc35)NC(=O)[C@H](Cc3ccsc3)NC4=O)NC(=O)[C@H](Cc3cccc(C(=O)O)c3)NC(=O)[C@H](CC(=O)O)NC1=O)NC(=O)[C@H](CC(C)(C)C)NC(=O)[C@H](CC(=O)O)NC2=O` (stereo partly drawn) [I-45, Ac-PL3-Asp-Npg-B5-Asp-3COOHF-[isophthalate]-Lys-Ala-Phe-Leu-PyrS2-3Thi-BztA-Lys-NH2], the figures for the IC50 at beta-catenin and at beta-catenin/TCF4 were below 50 nM and above 10 µM, respectively.

With `CC(=O)N1CCC[C@]12CC=CCCCC1(CCCC=CCCCOC(=O)N3CC[C@@]4(C3)NC(=O)[C@H](CC(C)C)NC(=O)[C@H](Cc3ccccc3)NC(=O)[C@H](C)NC(=O)[C@H](CCCCNC(=O)CCC(=O)NCCCC[C@@H](C(N)=O)NC(=O)[C@H](Cc3csc5ccccc35)NC(=O)[C@H](Cc3ccsc3)NC4=O)NC(=O)[C@H](Cc3cccc(C(=O)O)c3)NC(=O)[C@H](CC(=O)O)NC1=O)NC(=O)[C@H](CC(C)(C)C)NC(=O)[C@H](CC(=O)O)NC2=O` (stereo partly drawn) [I-46, Ac-PL3-Asp-Npg-B5-Asp-3COOHF-[succinate]-Lys-Ala-Phe-Leu-PyrS2-3Thi-BztA-Lys-NH2], the IC50 on beta-catenin was below 50 nM; against beta-catenin/TCF4 it was 3 to 10 µM.
